Reference: patent US20060014785A1, “BICYCLIC, SUBSTITUTED TRIAZOLES AS MODULATORS OF PPAR AND METHODS OF THEIR PREPARATION” (Metabolex, Inc., priority 2004, published 2006)

Amino acid sequences for entries named in this document (tags omitted). A change or cut given only in a name is not applied to a line headed by its entry. Residues count along the entry.
UniProt P35396, 210-438 limits assumed: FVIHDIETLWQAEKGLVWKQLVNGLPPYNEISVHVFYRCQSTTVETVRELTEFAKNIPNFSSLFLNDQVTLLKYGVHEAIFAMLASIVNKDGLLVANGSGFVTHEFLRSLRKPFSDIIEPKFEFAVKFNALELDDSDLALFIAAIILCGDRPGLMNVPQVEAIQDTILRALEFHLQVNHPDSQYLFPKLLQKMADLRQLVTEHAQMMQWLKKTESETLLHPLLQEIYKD
UniProt P37238, 238-503 limits assumed: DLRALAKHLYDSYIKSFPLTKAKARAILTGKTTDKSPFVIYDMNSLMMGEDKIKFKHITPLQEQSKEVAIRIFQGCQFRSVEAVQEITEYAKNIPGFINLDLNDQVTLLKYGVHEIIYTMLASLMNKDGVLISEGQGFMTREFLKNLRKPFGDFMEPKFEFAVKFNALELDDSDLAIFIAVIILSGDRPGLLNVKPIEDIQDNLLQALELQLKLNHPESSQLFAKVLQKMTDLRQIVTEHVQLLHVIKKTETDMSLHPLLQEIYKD
UniProt P23204, 239-466 limits assumed: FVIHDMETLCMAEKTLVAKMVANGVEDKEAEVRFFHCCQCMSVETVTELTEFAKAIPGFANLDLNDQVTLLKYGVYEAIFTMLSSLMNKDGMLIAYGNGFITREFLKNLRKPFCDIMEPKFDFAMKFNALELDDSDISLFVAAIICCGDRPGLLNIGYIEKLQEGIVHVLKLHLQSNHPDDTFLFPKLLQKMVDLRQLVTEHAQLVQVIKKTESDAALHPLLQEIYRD

Assays:
mouse PPARδ = mouse PPARδ (Mus musculus, UniProt P35396); experiment: PPAR delta transactivation (GAL4 chimeric receptor luciferase reporter) assay; conditions: read-out: Gene Activation Assay: EC50 (<10 μM) PPAR delta; GAL4-mPPAR δ chimeric receptor, pFR-Luc reporter, HEK293T cells, 20 hours incubation
Excerpt: (§1) Measurement of PPARγ, δ, and α Transactivation Activity.
(§2) Chimeric receptors were constructed in which the yeast transcription factor GAL4 DNA binding domain was fused to the ligand binding domain of either mouse PPARγ, mouse PPARδ or mouse PPAR α in order to assess the ability of the compounds of the present invention to activate gene expression in a PPAR-dependent manner. The chimeric receptor expression plasmids (GAL4-mPPARγ, GAL4-mPPAR δ and GAL4-PPAR α) and the reporter plasmid containing 5×GAL4 binding site (pFR-Luc, obtained from Stratagene) were transfected into HEK293T cells using the Lipofectamine 2000 reagent (Invitrogen), according to the manufacturers instructions. Six hours after transfection, the culture medium was renewed and the cells were incubated for 20 hours in presence of either 1) DMSO (vehicle), 2) a compound of the invention or 3) a reference compound for comparison. Rosiglitazone (obtained from WDF Pharma) was used as a reference compound for the PPARγassay; GW501516 (prepared as described in Sznaidman et al. Bioorg. Med. Chem. Lett. (2003) 13:1517-1521) was used as a reference compound for the PPAR δ assay and GW7647 (obtained from Sigma) was used as a reference compound for the PPAR α assay. Luciferase activity was measured as a reporter of gene expression. Luciferase activity on the cell lysates using the Steady-Glo reagent was measured according to the manufacturers instructions.

mouse PPARγ = mouse PPARγ (Mus musculus, UniProt P37238); experiment: PPAR gamma transactivation (GAL4 chimeric receptor luciferase reporter) assay; conditions: read-out: Gene Activation Assay: EC50 (<10 μM) PPAR gamma; GAL4-mPPARγ chimeric receptor, pFR-Luc reporter, HEK293T cells, 20 hours incubation
Excerpt: as §1, §2

mouse PPAR α = mouse PPAR α (Mus musculus, UniProt P23204); experiment: PPAR alpha transactivation (GAL4 chimeric receptor luciferase reporter) assay; conditions: read-out: Gene Activation Assay: EC50 (<10 μM) PPAR alpha, pFR-Luc reporter, HEK293T cells, 20 hours incubation
Excerpt: as §1, §2

EC50 (mouse PPARδ) | EC50 (mouse PPARγ) | EC50 (mouse PPAR α) | SMILES
< 10 µM | > 30 µM | > 10 µM | CC(C)c1nn(-c2ccc(C(F)(F)F)cc2)nc1Cn1ccc2cc(OCC(=O)O)ccc21
< 10 µM | > 30 µM | > 10 µM | O=C(O)Cn1ccc2cc(OCc3nn(-c4ccc(C(F)(F)F)cc4)nc3C(F)(F)F)ccc21
< 10 µM | > 10 µM | > 10 µM | CC(C)c1nn(-c2ccc(C(F)(F)F)cc2)nc1COc1ccc2c(ccn2CC(=O)O)c1
< 10 µM | > 30 µM | > 10 µM | Cc1nn(-c2cccc(C(F)(F)F)c2)nc1COc1ccc2c(ccn2CC(=O)O)c1

Continued, molecule first:

SMILES | EC50 (mouse PPARδ) | EC50 (mouse PPARγ) | EC50 (mouse PPAR α)
Cc1nn(-c2ccc(Cl)c(Cl)c2)nc1COc1ccc2c(CC(=O)O)coc2c1 | < 10 µM | > 30 µM | > 10 µM
COc1ccc(-n2nc(C)c(COc3ccc4c(ccn4CC(=O)O)c3)n2)cc1 | < 10 µM | > 30 µM | > 10 µM
O=C(O)Cc1coc2cc(OCc3nn(-c4ccc(C(F)(F)F)cc4)nc3-c3ccccc3)ccc12 | < 10 µM | > 30 µM | > 10 µM
Cc1nn(-c2cc(C(F)(F)F)cc(C(F)(F)F)c2)nc1COc1ccc2c(CC(=O)O)coc2c1 | < 10 µM | > 30 µM | < 10 µM
